Earlier results on one substance are cited in PMC7175122 (Biomolecules, 2020).

Where two headings read alike, the source gives them in different places.

A word on the IC50: it is the midpoint of a concentration-inhibition curve.

The data set deals with T1, VEGF-A165/NRP-1 complex (Homo sapiens, UniProt O14786).
T1 construct: purchased R&D Systems (Minneapolis, MN, USA)
T1 sequence (O14786 22-641 limits assumed): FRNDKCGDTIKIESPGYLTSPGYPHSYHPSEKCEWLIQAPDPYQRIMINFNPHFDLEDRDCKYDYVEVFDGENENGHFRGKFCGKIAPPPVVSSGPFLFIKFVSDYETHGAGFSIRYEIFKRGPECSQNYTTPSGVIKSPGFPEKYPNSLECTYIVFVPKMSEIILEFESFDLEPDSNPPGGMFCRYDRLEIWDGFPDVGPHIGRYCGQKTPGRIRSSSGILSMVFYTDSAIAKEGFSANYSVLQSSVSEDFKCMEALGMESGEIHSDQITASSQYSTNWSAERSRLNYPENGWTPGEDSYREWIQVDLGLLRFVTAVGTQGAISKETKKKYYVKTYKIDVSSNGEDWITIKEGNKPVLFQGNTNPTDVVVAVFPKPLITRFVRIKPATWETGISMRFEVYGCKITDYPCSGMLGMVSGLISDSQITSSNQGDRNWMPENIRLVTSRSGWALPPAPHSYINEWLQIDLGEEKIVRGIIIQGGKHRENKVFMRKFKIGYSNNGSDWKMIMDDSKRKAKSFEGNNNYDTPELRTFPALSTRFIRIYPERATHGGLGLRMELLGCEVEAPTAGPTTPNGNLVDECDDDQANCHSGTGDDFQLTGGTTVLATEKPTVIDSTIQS
Particulars: cited from earlier work.

In the case of “ATWLPPR [Compound A7R, heptapeptide NRP-1 ligand identified by phage display]”, the IC50 (binding to NRP-1, read-out: IC50) was 60 to 84 µM and the IC50 (reference peptide, read-out: RP IC50) is 80 µM.
